## Yeast mating assay 2: variants of the scFv Ab-91

Data: MIT Lincoln Laboratory AlphaSeq set, Engelhart et al. 2022, doi:10.1038/s41597-022-01779-4, as distributed in FLAb.

All variants were tested on one target, the spike HR2 peptide PDVDLGDISGINAS (SARS-CoV-2).

Parent scFv Ab-91: VL joined to VH by three GGGGS repeats. Changes lie in the heavy chain CDRs alone.
VL: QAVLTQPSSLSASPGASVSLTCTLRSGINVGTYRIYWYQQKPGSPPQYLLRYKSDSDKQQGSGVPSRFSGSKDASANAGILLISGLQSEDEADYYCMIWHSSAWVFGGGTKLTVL
VH: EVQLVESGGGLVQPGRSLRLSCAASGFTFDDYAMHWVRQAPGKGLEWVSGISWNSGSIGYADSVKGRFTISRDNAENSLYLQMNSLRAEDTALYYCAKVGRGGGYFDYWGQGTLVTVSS

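Library AAYL51 holds single substitutions and randomly drawn double and triple substitutions in the CDRs. Affinity was read by AlphaSeq, a pooled yeast mating assay with surface-displayed partners. After mating in shaken culture at 30 °C for 16 h, diploids were selected and their barcode pairs sequenced. A regression on co-assayed BCL2-family reference pairs converts the normalised counts of each replicate to an apparent Kd. There are three technical replicates.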

The parent's heavy chain CDRs are GFTFDDYAMH, GISWNSGSIGYADSVK, VGRGGGYFDY; each variant's own CDRs replace them letter for letter. All variants listed here change S52 of the VH, counted from its first residue. The read-out is the apparent dissociation constant on a log10 scale (nM): the lower, the stronger. The mean shown is taken over the replicates in which the pair was detected. "not detected" means that the variant was in the library but no mating with the target was seen in any replicate; the authors take this as a sign of poor binding, and no number exists. Nonspecific signal, from three strains lacking the peptide, appeared in 21% of pairings of library AAYL51, centred on 4.54 (5% of these signals below 3.26); values are not corrected for it. In this assay the parent's reference entry averaged 1.86; its copy inside this library read 0.88.

CDR-H1	CDR-H2	CDR-H3	mean log10 Kd (nM)	replicates with signal
GFTFHDYAMH	GIPWNSGSITYADSVK	VGRGGGYFDY	4.03	2/3
GFTFDDYAMH	GIKWNSGSIGYADSVD	VGRGGGYFDY	5.17	3/3
DFTFDDYAMH	GILWNSGSIGYADSVK	VGRGGGYFDY	4.75	1/3
GFTFDDYAMH	GIRWNSGSIGYADSVK	VGRGGRYFFY	not detected	0/3
GFTFDDYAMH	GIYWNSGSWGYADSVK	VGRGGYYFDY	5.00	1/3
GFTFDDYAMH	AIRWNSGSIGYADSVK	VGRGGNYFDY	not detected	0/3
GFTFQDYAMH	GIIWNSGSIGGADSVK	VGRGGGYFDY	not detected	0/3
GFRFDDYAMH	GINWNSGSIGYADSLK	VGRGGGYFDY	1.97	3/3
GFTFDCYAMH	GILWNSGSQGYADSVK	VGRGGGYFDY	4.79	1/3
GMTFDDYAMH	GIVWNSYSIGYADSVK	VGRGGGYFDY	not detected	0/3
GFTFDDYAMH	GIWWNSGSIPFADSVK	VGRGGGYFDY	not detected	0/3
GFTFDDYAMH	GIGWNSGNIGYADPVK	VGRGGGYFDY	3.94	2/3
GFTFDDYAMH	GIAWNSFSIGFADSVK	VGRGGGYFDY	3.92	2/3
GFTFDDYAMM	GIAWNSGSIGYMDSVK	VGRGGGYFDY	5.48	1/3
GFTFDTYAMH	GIFWNSGSAGYADSVK	VGRGGGYFDY	not detected	0/3
CFTFDDYAMH	GIMWNSGSIGYADSVK	VGRGGGYFDY	5.76	2/3
GFTFDDYASH	GIIWNSGSIGYADSYK	VGRGGGYFDY	4.78	1/3
GFTFDDYAMH	GILWCSGSIGYADSVK	AGRGGGYFDY	4.34	1/3
GFTFDDYAMH	GIEWNSGSIGYAKSVK	IGRGGGYFDY	not detected	0/3
GFTEDDYAMH	GITWNSGSIGYADSVK	VGRQGGYFDY	4.40	2/3
GFTFDDYAMH	GIWWNSGSIGYADSVV	VGRGTGYFDY	not detected	0/3
GFTIDDYAMH	GITWNSGDIGYADSVK	VGRGGGYFDY	not detected	0/3
GFTFDDYWMH	GIKWNSGSIGYADSVK	VGRGGGYFDY	5.10	3/3
GFTFDDYAMH	GIEWNSGSIGYADSRK	VGRHGGYFDY	not detected	0/3
GFTFDDYAMH	GIFWPSGYIGYADSVK	VGRGGGYFDY	not detected	0/3
GFTFDDYAMH	GINWNSGSIGYATSVK	VGRGGGYFDY	not detected	0/3
GFTFDDYAMC	GIWWNSGSIGYADSVK	VGRGGGYTDY	not detected	0/3
GFTLDDYAMH	GIRWNSGSIGYADSVK	VWRGGGYFDY	5.16	1/3
GFTSDDYAMH	GIGWNSGSIGYADSVK	VGRGGGYWDY	4.45	2/3
GFTFDDYAMH	GAHWNSGSIGYAGSVK	VGRGGGYFDY	5.05	1/3
NFTFDDYAMH	GIGWNSGSIGYADSRK	VGRGGGYFDY	6.21	1/3
GFTFDDYAMH	GIWWNSGSIGEADSVK	VGRGGGYFDY	not detected	0/3
GFTFDDYAMH	GIHWNSGSIGYADSVK	VGRGWGYFDY	not detected	0/3
GFTFDDYAMH	HIIWNSGSIGYADSVK	DGRGGGYFDY	not detected	0/3
GFTFDDYAMH	GIFWNSGSIGYADSVT	VGRGLGYFDY	5.28	2/3
GFTFDDYAMH	GKCWNSGSIGYADSVK	VGRGGMYFDY	5.65	1/3
GFTFDDYAMH	GIKWNSGSIIYADSVK	VGRGGGCFDY	4.84	2/3
GFEFDEYAMH	GIMWNSGSIGYADSVK	VGRGGGYFDY	4.12	3/3
GFTFDDYAMH	GINWNSGSIGYAKVVK	VGRGGGYFDY	not detected	0/3
GFTFDDYAMH	GIKWNSGSIGYADSVK	VGRGGGKFDY	not detected	0/3
GFTFDYYAMH	GIQWNSRSIGYADSVK	VGRGGGYFDY	2.32	1/3
GFTFDDYAMH	AITWNSGSIGYAKSVK	VGRGGGYFDY	not detected	0/3
GFTFDDYAMH	GIAMNSGSIGYADSVK	VGRGGGYTDY	4.89	2/3
GFTFDKYAMH	GIDWNSGSIGYADSVK	MGRGGGYFDY	4.44	2/3
GFTFDDYAMH	GIRWNSGSIGYAPSVK	VGRNGGYFDY	5.93	3/3
GFTFDDYAMH	GIRWNSGSAGYADSVK	VGRGGGYFDY	not detected	0/3
GFTFDDYAMH	GRVWNSGSIGYADSVK	TGRGGGYFDY	not detected	0/3
GFTFDDYAMP	GIDWNSGSIGYADSVK	VGRGGGYFGY	not detected	0/3
GNTFDDYAMH	GIGWNSGSIGYADSVK	VGRGGGVFDY	not detected	0/3
QFTFDDYAMH	GIFWNSGSIGYADSVK	VGRGGGYFFY	not detected	0/3
GFTFDDYAMH	RILWNMGSIGYADSVK	VGRGGGYFDY	not detected	0/3
GFTCDDYAMH	GIVWNSGSIGYADSVK	VGRGGGYFFY	4.31	2/3
GFTFDIYAMH	GIHWNSGSIGYADSVK	VGREGGYFDY	4.96	2/3
GFTFDDYAKN	GIQWNSGSIGYADSVK	VGRGGGYFDY	5.58	1/3
GFTFDDYAMH	GINWMSGSAGYADSVK	VGRGGGYFDY	3.94	1/3
GFTFDDYAMH	GIPWNSGSIGYADSVK	VGRKYGYFDY	3.37	1/3
GFTFDDYAMN	GIEWNQGSIGYADSVK	VGRGGGYFDY	4.14	2/3
GFTFDDYAWH	GILWNSGSIGYADSVK	IGRGGGYFDY	2.80	1/3
GFTFDDYAMH	GIDWNSGSIIYADSVK	VGRIGGYFDY	5.65	2/3
GFTFDDYAMH	GIYWNSGSIGYASSVK	VGRGGSYFDY	5.81	2/3
GFTFDDYKMK	GIIWNSGSIGYADSVK	VGRGGGYFDY	not detected	0/3
GFTFDDYAMH	GITWNSGVIGYADSVK	VGRMGGYFDY	3.22	1/3
GFTFDDYAMH	GIKSNSGSIGIADSVK	VGRGGGYFDY	4.47	1/3
GFVFDDYAMH	IIGWNSGSIGYADSVK	VGRGGGYFDY	not detected	0/3
NFTFDDYAMH	GIRWNSGSIGYADSVK	VGRGTGYFDY	4.20	1/3
GFTFDDYAMH	GIGRNSGSIGYADSVK	VGRGGEYFDY	not detected	0/3
GFTFDDYAMH	GIYWNSGSIGYADSVK	VGRGGPYFDY	not detected	0/3
GFTFDDYAMH	GINWNSGSIDYADSVK	VGRGGGYFDI	not detected	0/3
GFTFMDYAMH	GITWNSGSIGYADSVK	VGQGGGYFDY	4.51	1/3
GFTFDDYAMH	GIRWNSGCIGYAISVK	VGRGGGYFDY	4.68	3/3
GFTFDDYAMH	GIAWNSGSIGYALSVK	VGRGGGYFPY	not detected	0/3
GFAFDDYAMH	GIVWNSGSIGYADSVK	VGRKGGYFDY	not detected	0/3
GFTFDDYAMH	GILWNSGSEGYADSVK	VGRGGGYFDY	4.59	2/3

7 of these entries, quoted again:

CDR-H1	CDR-H2	CDR-H3	mean log10 Kd (nM)	replicates with signal
GFTFDDYAKN	GIQWNSGSIGYADSVK	VGRGGGYFDY	5.58	1/3
GFTFDDYAMH	GINWNSGSIGYATSVK	VGRGGGYFDY	not detected	0/3
GFTFDDYAMH	GIKWNSGSIIYADSVK	VGRGGGCFDY	4.84	2/3
GFTFDDYAMH	GIKWNSGSIGYADSVD	VGRGGGYFDY	5.17	3/3
GFTFDDYAMH	GIFWNSGSIGYADSVT	VGRGLGYFDY	5.28	2/3
GFTFDDYAMH	GIGRNSGSIGYADSVK	VGRGGEYFDY	not detected	0/3
GFTFDYYAMH	GIQWNSRSIGYADSVK	VGRGGGYFDY	2.32	1/3